Test results: patent publication US5766848A (Synaptic Pharmaceutical Corporation, priority 1994, dated 1998)

Sequences of proteins named here, by UniProt entry; tags and fusion partners are left off. A change or cut given only in a name is not applied to a line headed by its entry.
UniProt P48065: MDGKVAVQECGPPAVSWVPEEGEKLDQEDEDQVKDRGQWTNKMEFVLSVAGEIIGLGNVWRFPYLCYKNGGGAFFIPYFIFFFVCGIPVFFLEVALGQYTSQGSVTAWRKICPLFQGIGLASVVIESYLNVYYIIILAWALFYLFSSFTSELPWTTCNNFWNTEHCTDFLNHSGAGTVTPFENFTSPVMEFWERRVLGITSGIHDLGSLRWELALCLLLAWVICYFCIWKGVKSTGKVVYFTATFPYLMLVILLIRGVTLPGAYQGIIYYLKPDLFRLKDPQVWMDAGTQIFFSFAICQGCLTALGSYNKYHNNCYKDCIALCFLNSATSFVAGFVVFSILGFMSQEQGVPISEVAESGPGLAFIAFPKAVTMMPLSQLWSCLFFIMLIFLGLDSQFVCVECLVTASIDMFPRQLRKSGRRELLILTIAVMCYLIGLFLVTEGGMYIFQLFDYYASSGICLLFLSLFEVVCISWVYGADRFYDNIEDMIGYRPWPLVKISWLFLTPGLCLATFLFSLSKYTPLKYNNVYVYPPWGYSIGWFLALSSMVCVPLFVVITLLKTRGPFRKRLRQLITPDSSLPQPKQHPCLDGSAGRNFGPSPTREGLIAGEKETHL
UniProt P30531: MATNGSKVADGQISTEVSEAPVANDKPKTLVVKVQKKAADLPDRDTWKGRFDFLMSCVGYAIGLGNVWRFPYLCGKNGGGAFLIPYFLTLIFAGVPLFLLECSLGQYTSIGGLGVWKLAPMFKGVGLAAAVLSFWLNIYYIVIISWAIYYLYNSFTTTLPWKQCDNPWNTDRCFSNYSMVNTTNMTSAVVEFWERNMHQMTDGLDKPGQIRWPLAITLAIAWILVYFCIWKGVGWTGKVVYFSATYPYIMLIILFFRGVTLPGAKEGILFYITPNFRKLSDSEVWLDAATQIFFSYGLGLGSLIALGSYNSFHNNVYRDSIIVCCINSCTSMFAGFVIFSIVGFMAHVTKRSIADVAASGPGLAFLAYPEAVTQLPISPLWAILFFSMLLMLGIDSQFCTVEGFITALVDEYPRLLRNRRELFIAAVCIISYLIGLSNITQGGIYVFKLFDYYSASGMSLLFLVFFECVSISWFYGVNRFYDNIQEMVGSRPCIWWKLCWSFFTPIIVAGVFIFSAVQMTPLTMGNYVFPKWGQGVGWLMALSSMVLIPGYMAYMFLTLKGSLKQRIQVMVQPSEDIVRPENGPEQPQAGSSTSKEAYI

How the values were obtained:
[1] = biological target: T1, human BGT-1 (Homo sapiens, UniProt P48065); settings: read-out: IC50, human BGT-1, inhibition of [3H]GABA uptake; Table 9; stable LM(tk-) cell line; means ± S.E.M.
T1 sequence (P48065 1-614 C10Y): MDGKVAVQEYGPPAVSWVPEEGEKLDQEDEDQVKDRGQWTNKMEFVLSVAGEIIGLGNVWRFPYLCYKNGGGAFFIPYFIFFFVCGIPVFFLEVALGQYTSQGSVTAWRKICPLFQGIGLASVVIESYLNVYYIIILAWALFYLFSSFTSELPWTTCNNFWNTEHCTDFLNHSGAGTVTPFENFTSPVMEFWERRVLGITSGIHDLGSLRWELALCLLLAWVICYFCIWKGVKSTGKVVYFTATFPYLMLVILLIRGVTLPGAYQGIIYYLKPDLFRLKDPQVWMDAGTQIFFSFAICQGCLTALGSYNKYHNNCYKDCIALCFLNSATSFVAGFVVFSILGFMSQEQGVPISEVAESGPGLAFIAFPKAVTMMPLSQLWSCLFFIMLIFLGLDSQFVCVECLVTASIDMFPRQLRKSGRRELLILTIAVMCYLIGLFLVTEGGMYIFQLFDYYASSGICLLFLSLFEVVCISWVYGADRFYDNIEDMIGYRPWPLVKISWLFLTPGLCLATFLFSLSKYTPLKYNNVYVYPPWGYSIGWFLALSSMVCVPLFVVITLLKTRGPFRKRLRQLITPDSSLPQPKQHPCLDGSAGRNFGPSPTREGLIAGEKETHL

[2] = biological target: human GAT-1 (Homo sapiens, UniProt P30531); settings: read-out: IC50, human GAT-1, inhibition of [3H]GABA uptake; Table 9; stable LM(tk-) cell line; means ± S.E.M.

O=C(O)C1CCCN(CCC=C(c2ccccc2)c2ccccc2)C1 (centres unmarked) [SK&F 89976-A, N-(4,4-diphenyl-3-butenyl)-3-piperidinecarboxylic acid]
IC50 [1]: 7.21 ± 3.63 mM | IC50 [2]: 0.00013 ± 1e-05 mM
